## Antibody variant affinities, Ab-95 light chain, assay 2

The target is the same throughout: PDVDLGDISGINAS, from the HR2 region of SARS-CoV-2 spike.

Each scFv is VH, a (GGGGS)3 linker, VL, as in the parent Ab-95, and differs from it in the CDRs of the light chain only.
VH: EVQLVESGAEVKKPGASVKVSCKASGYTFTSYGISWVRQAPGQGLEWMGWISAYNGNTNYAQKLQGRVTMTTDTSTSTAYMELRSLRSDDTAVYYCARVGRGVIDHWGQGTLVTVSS
VL: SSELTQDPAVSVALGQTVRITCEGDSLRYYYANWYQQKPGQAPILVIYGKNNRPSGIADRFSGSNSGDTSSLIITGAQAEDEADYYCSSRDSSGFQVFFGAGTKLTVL

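The parent was found by panning a naive human phage display library on the peptide. The library (AAYL52) carries one to three amino acid substitutions per variant, with no insertions or deletions. The scFvs were displayed on barcoded MATa yeast, the peptide on MATalpha yeast. Pairs that bind mate more often; barcode pairs of the diploids are counted by sequencing. The ratio of observed to expected reads was calibrated, replicate by replicate, on BCL2-family standards whose Kd was known from biolayer interferometry. There are three technical replicates.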

Each variant's VL is given in full.
This list gathers variants with a substitution at D25 (VL, numbered from residue 1).
Values are apparent Kd, the geometric mean of the replicates that gave a signal; lower means stronger binding.
A pair that was not seen in any replicate is written "nd"; this usually means weak binding, but a binder can also be missed.
For reference, the parent read 200 nM as the reference entry and 180 nM as a member of this library.
Background: pairings of library AAYL52 with three empty control strains gave a value in 28% of cases (median 8.2 µM, 5th percentile 800 nM). Values in that range, when seen in few replicates, are hard to tell from nonspecific mating.

The variant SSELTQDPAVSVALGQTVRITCEGCSLRYYYANWYQQKPGQAPILVIYGKNNRPGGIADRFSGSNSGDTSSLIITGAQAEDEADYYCSSRDSSGPQVFFGAGTKLTVL gave 6.0 µM (2 of 3 replicates).
The variant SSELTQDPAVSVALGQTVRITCEGISLRYYYANWYQQKPGQAPILVIYGKNNRPSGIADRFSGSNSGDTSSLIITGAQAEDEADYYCSSRDSSGFLVFFGAGTKLTVL gave 410 nM (3 of 3 replicates).
The variant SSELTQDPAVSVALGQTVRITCEGVSLRYYYANWYQQKPGQAPILVIYGKNNRPSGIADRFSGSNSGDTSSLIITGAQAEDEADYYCSSRDSSVFQVMFGAGTKLTVL gave 5.4 µM (3 of 3 replicates).
The variant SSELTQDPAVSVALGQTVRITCEGRSLRYKYANWYQQKPGQAPILVIYGKNNRPSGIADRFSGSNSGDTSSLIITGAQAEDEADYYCSSRDQSGFQVFFGAGTKLTVL gave 41 nM (3 of 3 replicates).
The variant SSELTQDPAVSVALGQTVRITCEGLSIRYYYAPWYQQKPGQAPILVIYGKNNRPSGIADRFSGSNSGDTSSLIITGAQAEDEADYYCSSRDSSGFQVFFGAGTKLTVL gave 17 µM (3 of 3 replicates).
The variant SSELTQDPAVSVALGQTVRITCEGHSLRYYYANWYQQKPGQAPILVIYGKNNRPSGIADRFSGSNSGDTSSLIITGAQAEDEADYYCSLRDSSGFQVWFGAGTKLTVL gave 210 nM (3 of 3 replicates).
The variant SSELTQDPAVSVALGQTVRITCEGNSLRYYTANWYQQKPGQAPILVIYGKNNRPSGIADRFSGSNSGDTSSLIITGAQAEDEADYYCSSRDSSGFQVAFGAGTKLTVL gave 47 nM (3 of 3 replicates).
The variant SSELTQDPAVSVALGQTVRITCEGNSLTYYYANWYQQKPGQAPILVIYGKNNRPSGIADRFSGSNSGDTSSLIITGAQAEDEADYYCSSPDSSGFQVFFGAGTKLTVL gave 40 µM (2 of 3 replicates).
The variant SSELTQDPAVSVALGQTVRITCWGNSLRYYYQNWYQQKPGQAPILVIYGKNNRPSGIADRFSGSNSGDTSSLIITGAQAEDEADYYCSSRDSSGFQVFFGAGTKLTVL gave nd (0 of 3 replicates).
The variant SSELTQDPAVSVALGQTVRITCEGLSLRYYYANWYQQKPGQAPILVIYGGSNRPSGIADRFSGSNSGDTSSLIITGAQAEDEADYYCSSRDSSGFQVFFGAGTKLTVL gave 180 nM (3 of 3 replicates).
The variant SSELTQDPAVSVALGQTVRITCEGNLLRYYYANWYQQKPGQAPILVIYGKNNRPSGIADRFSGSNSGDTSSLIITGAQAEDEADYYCSARDSSGFQVFFGAGTKLTVL gave 140 nM (3 of 3 replicates).
The variant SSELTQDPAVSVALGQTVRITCEGYSLRYYYAYWYQQKPGQAPILVIYGKNNRPSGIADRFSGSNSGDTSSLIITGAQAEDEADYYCSSRDSWGFQVFFGAGTKLTVL gave 29 µM (2 of 3 replicates).
The variant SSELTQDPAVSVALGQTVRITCEGESLRYYYANWYQQKPGQAPILVIYGKNNRPSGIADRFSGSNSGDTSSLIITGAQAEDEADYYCSIRDVSGFQVFFGAGTKLTVL gave 2.2 µM (3 of 3 replicates).
The variant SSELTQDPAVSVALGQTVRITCHGRSLRYYYANWYQQKPGQAPILVIYAKNNRPSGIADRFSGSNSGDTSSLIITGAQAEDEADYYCSSRDSSGFQVFFGAGTKLTVL gave 3.0 µM (3 of 3 replicates).

Data: MIT Lincoln Laboratory AlphaSeq set, Engelhart et al. 2022, doi:10.1038/s41597-022-01779-4, as distributed in FLAb.